# TrxR1 substrate: is turned over as a substrate by rat TrxR1; AID 588456; purified TrxR1 substrate turnover, NADPH consumption readout; O89049; Potency, µM (series often up to 114 µM), for inactives: at the top dose activity change, negative = substrate turnover; hit rate 0.01% among 390,000; note: potency is the fitted concentration of half-maximal effect; % is set by controls: 0 for no effect and ±100 for the full control effect; nearly all actives have a fitted effect of over 50% in size
#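 Rat TrxR1, dispensed at 90 nM, was prereduced with 400 uM NADPH (final) for 5 min at ~22 deg C, then incubated with compound 15 min before 400 uM selenite. A first-read NADPH fluorescence drop versus no-compound background flagged substrates.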
# ClpP mod: qHTS Assay for Activators of ClpP; purified B. subtilis ClpP, FRET peptide cleavage, 20 min; Potency, µM (doses to about 57.5 µM), for the others: top-dose activity change, negative = active; hit rate 1.9% among 340,000; AID 651965, 2013; active = well fitted falling curve with a large enough effect; inconclusive = small, poorly fitted or top-dose-only effect; inactive = no such curve, though single readings can be large or run the other way; note: potency is the fitted concentration of half-maximal effect; the source files actives as falling curves though it sought activators and does not explain the sign; nearly all actives have a fitted effect of over 65% in size
#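 Buffer: 100 mM Tris/HCl pH8, 100 mM KCl, 0.05% low protease BSA, 2.5% glycerol, 0.01% Tween-20. ClpP 10 microg/mL final; 20 min RT; delta FRET normalized to ADEP and DMSO controls.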
# miR-21 reporter: miR-21 reporter, rising signal. 340,000 tested, under 10 active. Potency, µM (highest dose often 38.3 µM), for the others: at the highest dose reporter change, positive = more light. HeLa miR-21 FLuc reporter, luciferase, 48 h. AID 2288; active = well fitted rising curve with a large enough effect; inconclusive = small, poorly fitted or top-dose-only effect; inactive = no such curve, though single readings can be large or run the other way;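 further: % of control where 0% means no effect; miR-21 action dims this reporter so a rising signal means less miR-21 action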
#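 Luminescence from a firefly luciferase reporter carrying a miR-21 binding site downstream, stably expressed under a CMV promoter in HeLa cells that make miR-21 endogenously, reports miRNA modulation after 48 h compound exposure up to approximately 40uM final.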
# Anesthetic bind: candidate novel general anesthetic via apoferritin binding | apoferritin/1-aminoanthracene competitive binding, fluorescence | Potency, µM (top dose mostly 77.5 µM), for inactives: at the top dose activity change, negative = displacement, actives largely listed as inhibitors | hit rate 0.074% among 350,000 | AID 485281; note: potency is the fitted concentration of half-maximal effect; % is set by controls: 0 for no effect and ±100 for the full control effect; nearly all actives have a fitted effect of over 20% in size
#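 10 uM apoferritin + 50% sat. 1-AMA, PBS; cpd 10 min RT; Ex380/Em535 endpoint; normalized to free probe vs complex; 4-param Hill fit; propofol titration as pos. ctrl.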
# rTrxR1 inhibitor: blocks rat thioredoxin reductase 1; recombinant rTrxR1, NADPH fluorescence consumption, selenite substrate; Potency, µM (doses to about 114 µM), for inactives: top-dose activity change, negative = inhibition, actives largely listed as inhibitors; hit rate 1% among 390,000; note: potency is the fitted concentration of half-maximal effect; % is set by controls: 0 for no effect and ±100 for the full control effect; nearly all actives have a fitted effect of over 65% in size
#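 Rat TrxR1 (90 nM in the dispensed reagent) was pre-reduced with 400 uM NADPH for 5 min at room temperature, then incubated with compound for 15 min. After 400 uM selenite was added, NADPH fluorescence (Ex 340/Em 450 nm) was followed for 8 min.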
# An asterisk follows results filed as active; ? = inconclusive; . = no result given; [ ] = remark or other dose. Hits are enriched below; roughly 2.5% of the tested compounds scored in any of these assays. Unless noted, calls come from the whole dose curve; as a rule, active = well fitted curve in the direction sought with a large enough effect; inconclusive = small, poorly fitted or top-dose-only effect, or another doubt; inactive = no such curve, though single readings can be large; an effect the other way counts as inactive or inconclusive.
item | compound | TrxR1 substrate | ClpP mod | miR-21 reporter
1 | NC(=S)N/N=C/c1ccc2cccc(OCc3ccccc3)c2n1 | 17% | . | -2%
2 | OC(C1=C/C(=C\c2ccncc2)c2ccccc21)c1ccncc1 (stereo not drawn) | -6% | -1% | .
3 | Cc1ccc(Cl)cc1N(C)C(=O)c1sc2nc3n(c(=O)c2c1C)CCCC3 | -12% | -1% | 11%
4 | CCOc1cc(CNC(=O)c2ccc3c(c2)NC(=O)C2CCCCN32)cc(OCC)c1OCC (stereo not drawn) | -5%[57.1 µM] | 31% | 9%
5 | CN(C)c1ccc(CNC(=O)Cc2ccc(NC(=O)N3CCCCc4ccccc43)cc2)cc1 | -7%[57.1 µM] | 1% | -4%
6 | O=S(=O)(NCCC1=CCCCC1)c1cccc2nsnc12 | 3% | 0% | -3%
7 | Nc1ccc(C#Cc2ccc3oc4ccccc4c(=O)c3c2)cc1 | 6%[57.1 µM] | 0% | .
8 | Nc1ccc2oc3ccccc3c2c1 | 57% | 18µM* | -50%
9 | Cc1ccc(-c2csc3ncnc(Sc4nnnn4-c4ccccc4)c23)cc1 | 3% | -15% | .
10 | CN(C)CCNC(=O)Cc1ccc(NC(=O)N2CCCCc3ccccc32)cc1 | 4%[57.1 µM] | -1% | 2%

item | Anesthetic bind | rTrxR1 inhibitor
1 | 22% | -10%
2 | . | -9%
3 | -12% | -17%
4 | -5% | 2%[57.1 µM]
5 | 2% | -3%[57.1 µM]
6 | 8.9µM* | 18%
7 | . | 17%
8 | 2% | 8%
9 | . | 25%
10 | 3% | 5%[57.1 µM]

# Next part
item | compound | TrxR1 substrate | ClpP mod | miR-21 reporter
11 | CC(C)(C)c1ccc(C(=O)Nc2nnc3n2CCS3)cc1 | 6%[57.1 µM] | 0% | 1%
12 | COc1cc(Cl)c(C)cc1NC(=O)CCc1c(C)nc2cc(-c3cccc(F)c3)nn2c1C | 9% | ? | -1%
13 | CCCOc1ccc(-c2c(=O)n(OCc3ccc([N+](=O)[O-])cc3)c3ccccc3[n+]2[O-])cc1 | 2% | 28µM* | -6%
14 | CC(C)(C)n1ncc2c(=O)n(Cc3ccc(C(F)(F)F)cc3)cnc21 | -7% | . | .
15 | CCCCN(C)S(=O)(=O)c1cc(-c2cc(C)no2)ccc1C | -3%[57.1 µM] | -1% | 10%
16 | CCN(CC)CCCn1c(=S)[nH]c2ncccc2c1=O | 26% | 32µM* | -4%
17 | CCOC(=O)CN(c1ccccn1)S(=O)(=O)c1ccccc1 | 77% | 32µM* | 1%
18 | O=C(NC1CCC(O)CC1)c1ccc(-c2ccc(Cl)cc2)o1 (stereo not drawn) | 43% | 25µM* | .
19 | O=C(NC1CCC(O)CC1)c1ccc(Br)o1 (stereo not drawn) | -7%[57.1 µM] | 1% | .
20 | O=C(NN1C(=O)NC2(CCCCC2)C1=O)c1ccc(-c2ccc(Cl)cc2)o1 | 75% | 6.3µM* | .

item | Anesthetic bind | rTrxR1 inhibitor
11 | 7% | 39%[57.1 µM]
12 | -6% | 16%
13 | 0% | 18%
14 | . | -18%
15 | 0% | 7%[57.1 µM]
16 | -10% | 2%
17 | -5% | -14%
18 | . | -11%
19 | . | 4%[57.1 µM]
20 | . | -16%

# New compounds follow.
item | compound | TrxR1 substrate | ClpP mod | miR-21 reporter
21 | O=C(NN1C(=O)NC2(CCCCC2)C1=O)c1cc2cc(Cl)ccc2o1 | 0% | -2% | .
22 | Cc1oc(=O)c(NC(=O)c2ccccc2)cc1C(N)=O | 2%[57.1 µM] | . | -4%
23 | COc1ccc(C(=O)Nc2cc(C(=O)c3ccccc3)c(C)oc2=O)cc1 | -3% | -6% | ?
24 | Cc1oc(=O)c(NC(=O)c2cccc(Cl)c2)cc1C(=O)c1ccccc1 | 3% | -2% | 24%
25 | Cc1ccc(-n2cnc3cc(C(=O)NC4CCCCCC4)ccc32)c(C)c1 | -5%[57.1 µM] | 0% | -3%
26 | COc1ccc(CNc2nc3nc(C)cc(C)n3n2)cc1 | 11% | ? | -38%
27 | COc1ccc(-c2nc3nc(C)cc(C)n3n2)cc1 | 82% | 16µM* | -36%
28 | C=CS(=O)(=O)c1c2cc(OC)ccc2nc2ccc(OC)cc12 | 13%[57.1 µM] | -3% | .
29 | Cc1nc2c(C(=O)NCc3ccccc3Cl)c[nH]n2c(=O)c1Cc1cccc(Cl)c1 | 4% | 4% | 24%
30 | CC(=O)Nc1ccc(CCNC(=O)c2ccc3ccccc3c2O)cc1 | 24% | 25µM* | .

item | Anesthetic bind | rTrxR1 inhibitor
21 | . | 6%
22 | 1% | 7%[57.1 µM]
23 | ? | 11µM*
24 | -23% | 35µM*
25 | 1% | 9%[57.1 µM]
26 | -21% | 6%
27 | 4% | -6%
28 | . | 1.3µM*
29 | -4% | 4%
30 | . | -12%

# 4 structures out of the list, arranged by length of the SMILES, highest first.
item | compound | TrxR1 substrate | ClpP mod | miR-21 reporter
24 | Cc1oc(=O)c(NC(=O)c2cccc(Cl)c2)cc1C(=O)c1ccccc1 | 3% | -2% | 24%
21 | O=C(NN1C(=O)NC2(CCCCC2)C1=O)c1cc2cc(Cl)ccc2o1 | 0% | -2% | .
26 | COc1ccc(CNc2nc3nc(C)cc(C)n3n2)cc1 | 11% | ? | -38%
27 | COc1ccc(-c2nc3nc(C)cc(C)n3n2)cc1 | 82% | 16µM* | -36%

item | Anesthetic bind | rTrxR1 inhibitor
24 | -23% | 35µM*
21 | . | 6%
26 | -21% | 6%
27 | 4% | -6%

# Additional results
item | compound | TrxR1 substrate | ClpP mod | miR-21 reporter
31 | CC[N+]1(C)CCC(O)(c2ccc(OC)cc2)C(C(=O)c2ccc(OC)cc2)C1 (stereo not drawn) | 4% | -2% | .
32 | Cc1ccc(S(=O)(=O)N(Cc2nc(-c3cccc(C)c3)no2)C2CCCCC2)cc1 | 1% | -6% | 0%
33 | Cc1ccc(-n2cnc3c(sc4nccc(N(C)C)c43)c2=O)cc1 | 8%[57.1 µM] | -20% | -14%
34 | COc1ccc(-n2cnc3c(sc4nccc(N(C)C)c43)c2=O)cc1 | 17% | 14µM* | 9%
35 | COc1cc(NC(=O)CCc2c(C)nc3c(-c4ccc(F)cc4)c(C)nn3c2C)cc(OC)c1OC | 13% | -10% | -13%
36 | Cc1ccc(C(=O)C(c2ccccc2)N2Cc3ccccc3C2=N)cc1 (stereo not drawn) | 54% | 3.2µM* | 15%
37 | c1cncc(-c2csc(-c3cccnc3)n2)c1 | -2% | -15% | -13%
38 | c1cncc(-c2nc(-c3ccco3)cs2)c1 | 13%[57.1 µM] | -10% | -11%
39 | CCOC(=O)c1c(NC(=O)c2cccs2)sc(CC)c1-c1cccs1 | 42% | 32µM* | -5%
40 | CCOC(=O)c1c(-c2ccc(C)s2)csc1NC(=O)c1cccs1 | 34% | -9% | -6%

item | Anesthetic bind | rTrxR1 inhibitor
31 | . | 0.71µM*
32 | 103% | 28%
33 | -14% | 10%[57.1 µM]
34 | 57% | -2%
35 | 102% | 35%
36 | 38% | -1%
37 | -11% | 10%
38 | -16% | 35µM*
39 | 0% | 33%
40 | -3% | 18%

# Next part
item | compound | TrxR1 substrate | ClpP mod | miR-21 reporter
41 | CCCCCCCCCCCC | . | . | .
42 | COCCNc1nc(Oc2ccc(NC(C)=O)cc2)c2sc(-c3ccccc3)cc2n1 | . | 32µM* | .
43 | COCCNc1nc(-c2ccccc2F)c2sc(-c3ccccc3)cc2n1 | . | 32µM* | .
44 | CCc1ccccc1Oc1nc2cc(-c3cccc(OC)c3)sc2c(=O)n1C | . | 13µM* | .
45 | CCc1ccccc1Oc1nc(NCCOC)nc2cc(-c3ccccc3)sc12 | . | 22µM* | .
46 | COCCNc1nc(-c2cc(F)ccc2C)c2sc(-c3ccccc3)cc2n1 | . | 5% | .
47 | O=C1CN(C(=O)COc2ccc(Cl)cc2Cl)C(c2ccc(F)cc2)c2cc(F)ccc2N1 (stereo not drawn) | -4% | -2% | ?
48 | O=C1c2[nH]nc(-c3ccccc3O)c2C(c2ccccc2F)N1Cc1ccncc1 (stereo not drawn) | -2% | -1% | ?
49 | Cc1cccc(CS(=O)(=O)c2nnc([C@H](Cc3ccccc3)NC(=O)OC(C)(C)C)o2)c1 | -1% | 1% | ?

item | Anesthetic bind | rTrxR1 inhibitor
41 | -10% | .
42 | . | .
43 | . | .
44 | . | .
45 | . | .
46 | . | .
47 | 0% | 23%
48 | 5% | 26%
49 | ? | 0.4µM*

# Assay outcomes from PubChem.
